# Apparent affinities of Ab-14 variants for a coronavirus HR2 peptide

The target is the same throughout: PDVDLGDISGINAS, from the HR2 region of SARS-CoV-2 spike.

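The parent was found by panning a naive human phage display library on the peptide. Variants in AAYL50 differ from the parent at up to three CDR positions; double and triple changes were sampled at random. Affinity was read by AlphaSeq, a pooled yeast mating assay with surface-displayed partners. Mating (16 h, 30 °C) was followed by selection of diploids and sequencing of their barcodes. The ratio of observed to expected reads was calibrated, replicate by replicate, on BCL2-family standards whose Kd was known from biolayer interferometry. Mating was done three times.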

Ab-14 is the parent antibody, in scFv form: VH, then a 15-residue (Gly4Ser)3 linker, then VL. The heavy chain is unchanged in all variants.
VH: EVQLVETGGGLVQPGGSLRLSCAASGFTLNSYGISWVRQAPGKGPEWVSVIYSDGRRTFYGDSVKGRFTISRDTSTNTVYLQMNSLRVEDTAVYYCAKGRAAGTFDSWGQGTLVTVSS
VL: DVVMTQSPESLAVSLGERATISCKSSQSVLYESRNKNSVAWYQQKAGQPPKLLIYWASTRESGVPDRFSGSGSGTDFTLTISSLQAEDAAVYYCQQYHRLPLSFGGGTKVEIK

Variants are written as CDR1, CDR2 and CDR3 of the light chain (limits as in the source). Parent: KSSQSVLYESRNKNSVA, WASTRES, QQYHRLPLS.
This list gathers variants with a substitution at L100 (VL, numbered from residue 1).
The Kd shown is the geometric mean over detected replicates; a lower Kd is a better binder.
An entry "no signal" has no value in the source: the pair was not observed among the diploids in any replicate. This suggests poor binding but is not conclusive.
Background: pairings of library AAYL50 with three empty control strains gave a value in 18% of cases (median 15 µM, 5th percentile 970 nM). Values in that range, when seen in few replicates, are hard to tell from nonspecific mating.

Variant KSSQSVLYGSRNKNKVA | WASTRES | QQYHRGPLS gave 2.0 µM (1 of 3 replicates). Variant KSSQSVLDESRNMNSVA | WASTRES | QQYHRPPLS gave 410 µM (2 of 3 replicates). Variant KSSQSVLYESRNKRSVA | WASTRRS | QQYHRQPLS gave 2.1 µM (1 of 3 replicates). Variant KTSQSVLYESRNKNSVA | WASTRWS | QQYHRAPLS showed 2.3 µM (1 of 3 replicates). Variant KSSQSVLYESRTKNSVA | WASTRES | QQYHSQPLS gave 17 nM (3 of 3 replicates). Variant KSSQSVLYESRNKNSVA | WASTRES | QQYHRSPLQ gave 4.5 nM (3 of 3 replicates). With KSSQSVLYESRNKNSVA | WLSTRES | QQHHRPPLS the result was 12 µM (1 of 3 replicates). With KSSQSVLYESRNSNSVA | WASTRES | KQYHRQPLS the result was no signal (0 of 3 replicates). Variant KSSQSVLYESRNKSSVA | WASTREK | QQYHRRPLS gave 43 µM (1 of 3 replicates).

With KANQSVLYESRNKNSVA | WASTRES | QQYHRMPLS the result was 6.6 nM (3 of 3 replicates). Variant KSSWSVLYESRNKNSVA | WAFTRES | QQYHRMPLS gave 15 µM (3 of 3 replicates). Variant KSSQSVLYESINKNSVA | WAGTRES | QQYHRQPLS showed 24 nM (3 of 3 replicates). Variant KSSQSPLYESRNKNSVA | WASTRES | QQYHRMILS showed 2.1 µM (2 of 3 replicates). Variant KSSQSVLYESRNKNSQA | WASTRES | QTYHRFPLS showed no signal (0 of 3 replicates). With KSSQSVLYESINKNSVA | WASTRES | QLYHRAPLS the result was 150 nM (3 of 3 replicates). Variant KSSVSVLYESRNKNSKA | WASTRES | QQYHRGPLS showed no signal (0 of 3 replicates). Variant KSSQSVLYESRNKNSVA | WASTRES | QQNHRIPLS showed 260 nM (3 of 3 replicates). Variant KSSQSVLYEQRNKNSVA | WASTQES | QQYHRWPLS gave 66 µM (2 of 3 replicates).

Variant KSSQSVLYESRNKNSVA | WASTRER | QQYHRMPWS showed no signal (0 of 3 replicates). Variant RSSQSVLYESRNKNSVA | WASTRES | CQYHRGPLS gave no signal (0 of 3 replicates). Variant KSSQSVLYECRNKNSVA | WSSTRES | QQYHRGPLS showed 550 µM (1 of 3 replicates). Variant KSHQSVLDESRNKNSVA | WASTRES | QQYHRGPLS showed 830 pM (3 of 3 replicates). Variant KSSQSVLYESRNKNSVA | WVSTDES | QQYHRIPLS showed no signal (0 of 3 replicates). For KSSQHCLYESRNKNSVA | WASTRES | QQYHRYPLS, the assay gave no signal (0 of 3 replicates). Variant KSSNSVLYESANKNSVA | WASTRES | QQYHRCPLS showed 200 nM (1 of 3 replicates). For KSSQSLLYESRNKNSVA | WASTRKS | QQYHRDPLS, the assay gave no signal (0 of 3 replicates). Variant KSSQSVNYESRNKNSVA | WASQRES | QQYHRIPLS gave 58 nM (3 of 3 replicates).

For KSSQSVLYESRNKNMVA | WASTRES | AQYHRMPLS, the assay gave 1.3 µM (3 of 3 replicates). For KWSQSVLYESRNKNSVA | WASTPES | QQYHRCPLS, the assay gave 38 µM (3 of 3 replicates). Variant KSSQSVFYESRNKNSVS | WASTRES | QQYHRCPLS showed no signal (0 of 3 replicates). With KSSQSVLYESRNKNSVA | WASTRDS | QQYHRRPLS the result was no signal (0 of 3 replicates). For KSWQSVLYESRNKNSVA | WASTREG | QQYHRKPLS, the assay gave 4.7 µM (3 of 3 replicates). With KSSQSVLYESRNKNSVA | PASTRES | QQYHRMPLI the result was no signal (0 of 3 replicates). Variant KSSQSVSYESRNKMSVA | WASTRES | QQYHRIPLS gave 3.1 µM (3 of 3 replicates). Variant KSSQSVLCESRNKNSVR | WASTRES | QQYHRRPLS showed no signal (0 of 3 replicates). Variant KSSQSVLYESRNKNSVA | WFSTRSS | QQYHRTPLS showed 660 µM (1 of 3 replicates).

Variant KSYQSVLYESRNKNSVR | WASTRES | QQYHRMPLS showed 14 µM (2 of 3 replicates). For KSSQSVLYWSRNKNSVA | WASTRES | QQYHREPLS, the assay gave 78 nM (3 of 3 replicates). With KSSQSVLYESRNKNSVA | WASTRWW | QQYHRCPLS the result was no signal (0 of 3 replicates). For KSSQSVLYESENKNSVA | WASTRES | QQYHYWPLS, the assay gave 2.5 nM (3 of 3 replicates).

For reference, 4 entries of the list once more:

{"CDR-L1": "KSSQSVLYESRNKNSVA", "CDR-L2": "WLSTRES", "CDR-L3": "QQHHRPPLS", "Kd (apparent)": "12 µM", "replicates with signal": "1 of 3"}
{"CDR-L1": "KWSQSVLYESRNKNSVA", "CDR-L2": "WASTPES", "CDR-L3": "QQYHRCPLS", "Kd (apparent)": "38 µM", "replicates with signal": "3 of 3"}
{"CDR-L1": "KSSQSLLYESRNKNSVA", "CDR-L2": "WASTRKS", "CDR-L3": "QQYHRDPLS", "Kd (apparent)": "no signal", "replicates with signal": "0 of 3"}
{"CDR-L1": "KSSQSVLYESRNKNSVA", "CDR-L2": "WVSTDES", "CDR-L3": "QQYHRIPLS", "Kd (apparent)": "no signal", "replicates with signal": "0 of 3"}

The measurements come from Engelhart et al. 2022 (doi:10.1038/s41597-022-01779-4) through the FLAb antibody collection.